Assay results published in article PMC10219297.

Amino acid sequences for entries named in this document (tags omitted). Residues count along the entry.
UniProt P40763, 2-770 limits assumed: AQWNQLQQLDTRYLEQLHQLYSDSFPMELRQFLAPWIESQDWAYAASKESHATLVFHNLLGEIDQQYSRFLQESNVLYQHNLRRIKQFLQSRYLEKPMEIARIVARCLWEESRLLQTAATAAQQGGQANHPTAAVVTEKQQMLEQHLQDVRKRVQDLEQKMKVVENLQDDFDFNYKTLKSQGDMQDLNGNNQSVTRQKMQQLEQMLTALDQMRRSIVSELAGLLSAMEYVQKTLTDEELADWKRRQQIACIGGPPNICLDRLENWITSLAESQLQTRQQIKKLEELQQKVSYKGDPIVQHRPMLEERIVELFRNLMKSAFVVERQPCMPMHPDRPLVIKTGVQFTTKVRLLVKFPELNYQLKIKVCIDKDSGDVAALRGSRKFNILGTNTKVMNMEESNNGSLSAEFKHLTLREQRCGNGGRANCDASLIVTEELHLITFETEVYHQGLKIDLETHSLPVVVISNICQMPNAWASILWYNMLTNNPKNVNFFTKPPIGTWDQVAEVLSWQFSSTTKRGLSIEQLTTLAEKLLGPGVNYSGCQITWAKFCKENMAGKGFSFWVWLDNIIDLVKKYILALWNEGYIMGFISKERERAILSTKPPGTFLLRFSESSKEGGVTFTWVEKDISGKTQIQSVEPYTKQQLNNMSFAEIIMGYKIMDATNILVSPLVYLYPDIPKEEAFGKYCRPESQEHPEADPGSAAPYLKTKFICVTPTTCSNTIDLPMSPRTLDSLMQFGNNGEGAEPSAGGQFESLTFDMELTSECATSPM

Target: STAT3 (Homo sapiens, UniProt P40763)
Assay: SPR (purified STAT3 immobilized on CM5 chip); supported by CETSA in A549 cells
Details: tested form: CF3COOH salt

**Q.** With Brc1cc(-c2nccc3c2ncn3CCCCCCN2CCCCC2)[nH]c1Br as the compound, how does the Kd read?
**A.** 9.01 µM
